The source of these data is patent publication US20260176659A1, “IMPROVED METHOD FOR THE PRODUCTION OF NATURAL VANILLIN” (BASE SE, priority 2022, published 2026).

A short description of the experiment: Bioconversion of eugenol to vanillin: one-pot concurrent cascade EUGO + alkene cleavage oxygenase (5 mM scale). Format: biochemical. Particulars: Table 8b, EUGO FD-CFE 1 mg/mL, CO-0X FD-CFE 1 mg/mL, catalase 10 mg/mL, eugenol 5 mM. The procedure: Stock solutions of eugenol (100 mM) were prepared in ethanol or DMSO and stored at −20° C. Unless otherwise stated, the reaction mixtures (0.5 mL) were set up in 1.5 mL glass vials as follows: freeze-dried cell free extract of IECO/CO-XX (3 mg) and EUGO (0.5 mg) were dissolved in the reaction buffer (50 mM glycine-NaOH pH 9.0) containing sodium ascorbate (1 mM), FeSO4 (1 mM) and bovine liver catalase (5 mg, Sigma Aldrich C40). The reaction was initiated by the addition of 0.025 mL eugenol stock (final concentration 5 mM), then incubated at 30° C. and 120 rpm overnight (rotary shaker). The final content of cosolvent was 5% v/v. To improve oxygenation, the vials were placed horizontally. At certain time points, samples (0.2 mL) were quenched with methanol (0.4 mL) and the mixture was centrifuged at 20238 g for 5-10 mins. Finally, the supernatant was analysed by HPLC.
EUGO (0.5 mg CFE), CO-25 (3 mg CFE) and catalase (5 mg, Sigma product #C40) were dissolved in 50 mM Glycine-NaOH pH 9.0 or Tris-HCl pH 8.0 together with FeSO4 (1 mM) and sodium ascorbate (1 mM). Note that the buffer content of the freeze-dried biocatalyst prep was not considered for the assembling of the reaction. The reaction was started by the addition of 5 mM eugenol from a 20× stock in ethanol. The reactions—performed in glass vials—were then incubated at 30° C. and 120 rpm (25 mm shaker). Finally, samples of the reaction mixture were diluted with MeOH and analyzed by HPLC at 280 and 340 nm. […] From 5 mM eugenol in 0.5 mL scale reaction, we obtained 83-88% conversion to vanillin 3a (Table 9).

B1: CO-14: alkene cleavage oxygenase, Caulobacter segnis, SEQ ID NO: 66 (protein, listed as Caulobacter segnis)
chain: MGIRFPNNDFKNFEAPMRAEIDLAGLEVVQGEVPKELSGGFFRLIGDRKWPAFVENDIFMLGEDGMASCFYFKDGRVDFKMRYVRTPRFVAEEKAGRALFGEYRNPFTDDPSVAGLSRGTANVTMLAHAGKLFAMKEDSPVIEMDPFTLETIGEYDWGGAVTAKAITAHPKIDPRTGELIFFGYCAAGPATRDVAYYEADAEGRIIHEAWFKAPYTCMVHDIMVTEHYVVFPITPLRHELEWIERREPAFKWDPNEEVYLGVLPRKGNGDQIRWFKGPNQCHGHTVGAFDDGRYIYADNTFSKRSFFHFFPNVDGSAFSPADTMPYMKRIVIDMESEGDHFTEQKLFEYPCELPRIDTRFETMDYNFVTMNLLDVPGQERVGHGFQWVATMDVNGNKPSKIYYAGDDCSIGEPQFVPKSNDAPEGEGYILTVVGKHQEMRSELLILDASDINAPPVATVALPFRLRSTGHGYWYSTSQLLGETNVLGAS
On to B1, for which, under “pH 8.0”, the “Product distribution after 24 hours 2a (%)” value was found to be 78.9%, the “Product distribution after 24 hours 3a (%)” value was 5.1% and the “Product distribution after 24 hours 5a (%)” value worked out at 16.0%. Moreover, under “pH 9.0”, the “Product distribution after 24 hours 2a (%)” value is recorded as 73.9%, the “Product distribution after 24 hours 3a (%)” value amounted to 4.0% and the “Product distribution after 24 hours 5a (%)” value was 22.1%.
